Molecular target: T1, P-IGF-1R (Rattus norvegicus, UniProt P24062)
T1 construct: L6hIR cells were seeded in 12-well plates; endogenous in cells; host or cells: L6hIR cells (rat L6 myoblasts)
Assay: Activation of IGF-1R in L6hIR cells in vitro, sandwich ELISA
Assay type: cell-based
Details: ligands 0-1000 nM for 30 min, 0.1% human serum albumin, three replicates

The chains behind the UniProt entries cited, without tags or fusion partners. Residues count along the entry.
UniProt P24062, 742-1370 partner limits assumed: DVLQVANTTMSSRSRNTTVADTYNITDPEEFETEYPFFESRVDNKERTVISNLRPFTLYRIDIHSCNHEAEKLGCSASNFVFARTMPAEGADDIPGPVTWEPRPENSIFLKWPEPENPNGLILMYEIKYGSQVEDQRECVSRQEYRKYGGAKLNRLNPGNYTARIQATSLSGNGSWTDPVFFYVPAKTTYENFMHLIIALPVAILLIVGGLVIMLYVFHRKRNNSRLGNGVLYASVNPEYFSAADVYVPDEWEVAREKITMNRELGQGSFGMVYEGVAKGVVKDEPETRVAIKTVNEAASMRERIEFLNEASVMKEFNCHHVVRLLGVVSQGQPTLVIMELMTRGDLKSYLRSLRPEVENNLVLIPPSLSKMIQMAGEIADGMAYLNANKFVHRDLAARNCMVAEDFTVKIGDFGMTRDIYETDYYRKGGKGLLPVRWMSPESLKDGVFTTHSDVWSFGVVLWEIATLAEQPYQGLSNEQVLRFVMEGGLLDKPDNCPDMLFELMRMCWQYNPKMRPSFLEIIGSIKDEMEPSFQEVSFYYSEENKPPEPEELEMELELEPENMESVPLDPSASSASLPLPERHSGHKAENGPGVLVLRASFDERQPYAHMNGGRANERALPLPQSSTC
UniProt P24062, 31-737 limits assumed: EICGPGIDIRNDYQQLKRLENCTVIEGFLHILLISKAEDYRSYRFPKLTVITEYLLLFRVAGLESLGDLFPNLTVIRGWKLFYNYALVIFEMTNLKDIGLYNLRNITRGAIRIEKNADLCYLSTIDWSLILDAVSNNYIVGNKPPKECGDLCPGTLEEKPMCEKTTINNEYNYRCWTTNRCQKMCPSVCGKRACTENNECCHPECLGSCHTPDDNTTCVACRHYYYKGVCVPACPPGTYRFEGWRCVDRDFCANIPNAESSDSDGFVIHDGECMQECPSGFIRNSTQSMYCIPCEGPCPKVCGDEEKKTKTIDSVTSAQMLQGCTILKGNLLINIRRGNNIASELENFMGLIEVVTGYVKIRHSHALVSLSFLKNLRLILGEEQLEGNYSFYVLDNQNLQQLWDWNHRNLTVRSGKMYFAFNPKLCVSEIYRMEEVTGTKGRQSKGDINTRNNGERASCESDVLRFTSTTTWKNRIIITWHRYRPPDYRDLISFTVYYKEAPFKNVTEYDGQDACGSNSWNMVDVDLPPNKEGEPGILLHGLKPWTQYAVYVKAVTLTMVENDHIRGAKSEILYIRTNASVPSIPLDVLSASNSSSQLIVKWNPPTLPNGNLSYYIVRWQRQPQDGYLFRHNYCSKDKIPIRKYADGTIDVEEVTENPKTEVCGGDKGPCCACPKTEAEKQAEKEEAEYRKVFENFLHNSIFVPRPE

With human insulin [HI] as the substance, how does the EC50 read?
The EC50 was 2.14 µM.
